Results: PubChem BioAssay (EPA / NIEHS)
The list shows a part of the results, in another mix than the full data. Calls of active or inactive are those of the source. Rule for the calls: active = hit-call score of the fitted dose curve at least 0.9, where 1 is the maximum; inactive = score below 0.9.

Amino acid sequences for entries named in this document (tags omitted).
UniProt Q16236, whole entry: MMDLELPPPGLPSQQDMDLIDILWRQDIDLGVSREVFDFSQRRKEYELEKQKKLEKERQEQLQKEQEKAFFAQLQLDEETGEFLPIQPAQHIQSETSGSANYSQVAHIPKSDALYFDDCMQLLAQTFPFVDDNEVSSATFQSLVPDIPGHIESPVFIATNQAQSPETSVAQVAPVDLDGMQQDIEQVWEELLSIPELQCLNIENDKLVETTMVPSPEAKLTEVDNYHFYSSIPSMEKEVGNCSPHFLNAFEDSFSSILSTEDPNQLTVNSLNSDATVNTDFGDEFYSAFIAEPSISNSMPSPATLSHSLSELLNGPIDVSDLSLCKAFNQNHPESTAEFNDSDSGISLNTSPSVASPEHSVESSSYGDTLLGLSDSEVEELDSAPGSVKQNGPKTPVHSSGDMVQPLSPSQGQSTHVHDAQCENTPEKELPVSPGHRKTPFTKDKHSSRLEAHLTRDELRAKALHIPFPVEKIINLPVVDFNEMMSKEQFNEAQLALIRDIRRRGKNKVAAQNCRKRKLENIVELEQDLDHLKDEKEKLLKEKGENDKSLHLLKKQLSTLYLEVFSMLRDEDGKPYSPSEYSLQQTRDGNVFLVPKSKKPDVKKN
UniProt P40763, whole entry: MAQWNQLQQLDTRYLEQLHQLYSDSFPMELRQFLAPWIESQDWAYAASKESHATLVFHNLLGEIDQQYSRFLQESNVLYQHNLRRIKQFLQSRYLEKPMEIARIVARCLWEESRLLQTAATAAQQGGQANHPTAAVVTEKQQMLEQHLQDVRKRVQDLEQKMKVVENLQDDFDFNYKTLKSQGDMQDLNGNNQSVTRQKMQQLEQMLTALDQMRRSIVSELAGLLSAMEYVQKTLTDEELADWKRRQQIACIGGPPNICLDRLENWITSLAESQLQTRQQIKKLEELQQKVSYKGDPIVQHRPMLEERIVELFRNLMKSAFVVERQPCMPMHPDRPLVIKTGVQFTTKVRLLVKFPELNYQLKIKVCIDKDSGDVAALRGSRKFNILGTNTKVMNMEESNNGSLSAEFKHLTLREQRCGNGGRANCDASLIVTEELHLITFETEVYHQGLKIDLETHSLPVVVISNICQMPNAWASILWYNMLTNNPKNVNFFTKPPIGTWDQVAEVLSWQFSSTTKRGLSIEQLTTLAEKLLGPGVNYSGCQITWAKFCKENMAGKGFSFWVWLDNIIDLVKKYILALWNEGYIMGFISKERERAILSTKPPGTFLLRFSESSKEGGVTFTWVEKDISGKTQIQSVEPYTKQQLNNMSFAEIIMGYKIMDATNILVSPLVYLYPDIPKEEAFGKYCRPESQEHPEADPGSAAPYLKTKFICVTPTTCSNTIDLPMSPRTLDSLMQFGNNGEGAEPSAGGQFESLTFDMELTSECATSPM

How the values were obtained:
Conditions in all cases: actives raise or lower the signal; mRNA level, 48 h
[1] = read-out: Pyruvate Dehydrogenase Kinase 4 (PDK4), PDK4 (gene 5166); experiment: LTEA_HepaRG_PDK4: Life Technologies and Expression Analysis (LTEA) Assay for Pyruvate Dehydrogenase Kinase 4 (PDK4) using HepaRG (AID 2283525)
Procedure, shortened: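 Differentiated human HepaRG cells, pre-cultured 48 h, were exposed in duplicate for 48 h in serum-free induction medium to eight half-log concentrations up to 100 uM in 0.5% DMSO. PDK4 mRNA was quantified by qRT-PCR, normalized to ACTB, GAPDH and POLR2A, bidirectional fitting versus DMSO.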

[2] = read-out: NAD(P)H dehydrogenase [quinone] 1 (NQO1), NQO1 (gene 1728); experiment: LTEA_HepaRG_NQO1: Life Technologies and Expression Analysis (LTEA) Assay for NAD(P)H dehydrogenase [quinone] 1 (NQO1) using HepaRG (AID 2283526)
Description: LTEA_HepaRG is a cell based, multiplexed-readout assay that uses HepaRG, a human liver cell line, with measurements taken at 48 hours after chemical dosing on a 96-well plate.LTEA_HepaRG_NQO1 is one of 102 assay component(s) measured in the LTEA HepaRG cell culture assay. It is a marker of Diseases associated with NQO1 include Tardive Dyskinesia and Childhood Leukemia.Data from the assay component LTEA_HepaRG_NQO1 was analyzed into 1 endpoint. This assay endpoint, LTEA_HepaRG_NQO1, was analyzed with bidirectional fitting relative to DMSO as the negative control and baseline of activity. Using a type of inducible reporter, measures of mRNA induction for gain or loss-of-signal activity can be used to understand regulation of transcription factor activity. To generalize the intended target to other relatable targets, this assay endpoint is annotated to the oxidoreductase intended target family, where the subfamily is quinone-acceptor.
A total of 1060 chemcials from the ToxCast library were tested in eight-point concentration-response experiments. […] Fluidigm's 96.96 Dynamic ArrayTM (Fluidigm, Amsterdam, the Netherlands) technology was used for gene expression analyses by quantitative reverse transcription polymerase chain reaction (qRT-PCR, performed by Quintiles/Expression Analysis, Durham, NC)89. […]

[3] = read-out: Nuclear factor erythroid 2-related factor 2 (Homo sapiens) (UniProt Q16236); experiment: LTEA_HepaRG_NFE2L2: Life Technologies and Expression Analysis (LTEA) Assay for Nuclear factor erythroid 2-related factor 2 (NFE2L2) Transcription Factor using HepaRG (AID 2283527)
Procedure, shortened: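 Differentiated human HepaRG cells in serum-free induction medium were exposed for 48 h to eight concentrations (top 100 uM, half-log dilutions, 0.5% DMSO), in duplicate. NFE2L2 mRNA was quantified by TaqMan qRT-PCR, normalized to ACTB, GAPDH and POLR2A, with bidirectional fitting versus DMSO.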

[4] = read-out: succinate dehydrogenase complex iron sulfur subunit B (SDHB), SDHB (gene 6390); experiment: LTEA_HepaRG_SDHB: Life Technologies and Expression Analysis (LTEA) Assay for succinate dehydrogenase complex iron sulfur subunit B (SDHB) using HepaRG (AID 2283528)
Procedure, shortened: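 SDHB transcript level read by TaqMan qRT-PCR, housekeeping-normalised (ACTB, GAPDH, POLR2A), after 48 h chemical treatment of plated HepaRG cells; eight concentrations top 100 uM, half-log steps, 0.5% DMSO, duplicates; fitted both directions against DMSO.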

[5] = read-out: Signal transducer and activator of transcription 3 (Homo sapiens) (UniProt P40763); experiment: LTEA_HepaRG_STAT3: Life Technologies and Expression Analysis (LTEA) Assay for Signal transducer and activator of transcription (STAT3) using HepaRG (AID 2283529)
Procedure, shortened: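 Differentiated human HepaRG cells in serum-free induction medium were exposed in duplicate for 48 h to eight half-log concentrations up to 100 uM in 0.5% DMSO. STAT3 mRNA was quantified by TaqMan qRT-PCR, normalized to ACTB, GAPDH and POLR2A, and fitted bidirectionally against DMSO.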

[6] = read-out: solute carrier (SLCO1B1), SLCO1B1 (gene 10599); experiment: LTEA_HepaRG_SLCO1B1: Life Technologies and Expression Analysis (LTEA) Assay for solute carrier (SLCO1B1) using HepaRG (AID 2283530)
Procedure, shortened: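 SLCO1B1 transcript read by qRT-PCR (Fluidigm arrays), normalized to three housekeeping genes, after 48 h chemical exposure of HepaRG cells; bidirectional concentration-response fitting versus 0.5% DMSO baseline. Eight-point half-log series, maximum 100 uM.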

[7] = read-out: sulfotransferase 2A1 (SULT2A1), SULT2A1 (gene 6822); experiment: LTEA_HepaRG_SULT2A1: Life Technologies and Expression Analysis (LTEA) Assay for sulfotransferase 2A1 (SULT2A1) using HepaRG (AID 2283531)
Procedure, shortened: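 HepaRG, 48 h chemical exposure, 8-pt half-log curve from 100 uM in 0.5% DMSO, duplicates. Readout: TaqMan qRT-PCR of SULT2A1 mRNA, housekeeping-normalized. Bidirectional fit vs DMSO baseline.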

[8] = read-out: Transforming Growth Factor (TGFA), TGFA (gene 7039); experiment: LTEA_HepaRG_TGFA: Life Technologies and Expression Analysis (LTEA) Assay for Transforming Growth Factor (TGFA) using HepaRG (AID 2283532)
Procedure, shortened: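 Differentiated human HepaRG cells, plated 48 h then switched to serum-free induction medium, were exposed in duplicate for 48 h to 8-point half-log series from 100 uM in 0.5% DMSO. TGFA mRNA measured by qRT-PCR, normalized to ACTB/GAPDH/POLR2A, bidirectional fit versus DMSO.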

[9] = read-out: Transforming Growth Factor (TGFB1), TGFB1 (gene 7040); experiment: LTEA_HepaRG_TGFB1: Life Technologies and Expression Analysis (LTEA) Assay for Transforming Growth Factor (TGFB1) Transporter using HepaRG (AID 2283533)
Procedure, shortened: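 qRT-PCR readout of TGFB1 transcript in HepaRG lysates, normalized to three housekeeping genes; gain or loss of signal fitted relative to 0.5% DMSO vehicle. Exposure: 48 h, 8-point curve from 100 uM, duplicate wells.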

[10] = read-out: TIMP1, TIMP1 (gene 7076); experiment: LTEA_HepaRG_TIMP1: Life Technologies and Expression Analysis (LTEA) Assay for TIMP1 using HepaRG (AID 2283534);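 note: TaqMan qRT-PCR signal normalized to ACTB GAPDH and POLR2A housekeeping genes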
Procedure, shortened: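 HepaRG, 48 h exposure, 8-pt half-log series from 100 uM in 0.5% DMSO, duplicates; TIMP1 transcript by Fluidigm qRT-PCR, housekeeping-normalized; bidirectional curve fit vs DMSO baseline.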

Measured: outcome

O=[N+]([O-])c1ccccc1[N+](=O)[O-]
inactive: all assays above
